In assay [1] the target is T1, Beta-1 adrenergic receptor (Homo sapiens, UniProt P08588). Description: Displacement of [3H]-CGP12177 from human beta1 adrenoceptor expressed in CHOK1 cells after 2 hrs by scintillation counting analysis. Format: cell-based, CHO-K1. (In general: Displacement assays read how much labelled ligand stays bound in the presence of the test substance.)
In assay [2] the target is T1, Beta-1 adrenergic receptor. In words: Antagonist activity at human beta1 adrenoceptor expressed in CHOK1 cells assessed as inhibition of cimaterol-induced [3H]cAMP accumulation incubated for 15 mins prior to cimaterol induction measured after 5 hrs. In kind it is functional, cell-based, CHO-K1.
Assay [3] concerns the target T1, Beta-1 adrenergic receptor. In words: Partial agonist activity at human beta1 adrenoceptor expressed in CHOK1 cells assessed as induction of [3H]cAMP accumulation after 5 hrs. In kind it is functional, cell-based, CHO-K1. A general note: cAMP levels reflect the balance of adenylyl cyclase and phosphodiesterase activity.

By UniProt entry, the sequences of proteins in these tests, tags left out.
UniProt P08588, whole entry: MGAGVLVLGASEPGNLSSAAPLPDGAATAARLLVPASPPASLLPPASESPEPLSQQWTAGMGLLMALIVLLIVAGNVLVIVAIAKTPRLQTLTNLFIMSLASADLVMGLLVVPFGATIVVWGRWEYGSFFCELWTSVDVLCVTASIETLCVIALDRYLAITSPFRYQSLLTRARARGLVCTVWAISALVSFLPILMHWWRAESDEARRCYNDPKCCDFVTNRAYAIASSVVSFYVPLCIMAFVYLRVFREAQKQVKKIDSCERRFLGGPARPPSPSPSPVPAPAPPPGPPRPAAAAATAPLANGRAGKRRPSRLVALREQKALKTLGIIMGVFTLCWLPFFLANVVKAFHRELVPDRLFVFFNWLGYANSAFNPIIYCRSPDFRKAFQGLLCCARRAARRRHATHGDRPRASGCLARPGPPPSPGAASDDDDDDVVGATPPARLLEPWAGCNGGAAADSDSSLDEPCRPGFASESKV

The term Kd denotes the free concentration of one partner at which half of the binding sites on the other are occupied at equilibrium, for simple one-to-one binding. Usually EC50 stands for the concentration at which the effect is half-maximal.

Take `N#Cc1cc(OCCOCC2CC2)ccc1OCC(O)CNCCNC(=O)Nc1ccc(O)cc1` (stereo not drawn) [LK-204545]: the results for the Kd in assay [1] and in assay [2] were 9.12 nM and 1.7 nM, respectively. The EC50 in assay [3] is 2.29 nM.

For the origin of these results see ChEMBL document CHEMBL2346523, “Synthesis and in vitro and in vivo characterization of highly β1-selective β-adrenoceptor partial agonists” (J Med Chem, 2013).
